Article PMC9076861

Tests used:
[1] = target: human insulin receptor overexpressed on Rat-1 cells (Rat-1/hIR) (human) (UniProt P06213); test: flow cytometry on cells; Rat-1/hIR cells with 100 nM FITC-labeled insulin plus low concentrations of the DNA aptamer IR-A62 (3.2–80 nM), added at the same time; 1 h at 4 °C in PBS, 1% BSA, 0.1% NaN3
[2] = target: human insulin receptor overexpressed on Rat-1 cells (Rat-1/hIR) (human) (UniProt P06213); test: flow cytometry on cells; Rat-1/hIR cells (1 x 10^6 cells/sample) with 100 nM FITC-labeled insulin alone; 1 h at 4 °C in PBS, 1% BSA, 0.1% NaN3; washed, fixed with 4% paraformaldehyde

percent shift in the peak fluorescent intensity (with 3.2–80 nM IR-A62 aptamer) [1]: 64.2%
percent shift in the peak fluorescent intensity [2]: 6.24%
Substance: FITC-labeled insulin (ligand)
